## Binding of CDR-mutated scFvs to a peptide of the spike HR2 region

Reference: Engelhart et al. 2022, doi:10.1038/s41597-022-01779-4. File: FLAb, binding data.

Antigen: PDVDLGDISGINAS, a 14-residue peptide of the SARS-CoV-2 spike HR2 region.

Parent: Ab-95, a human scFv built as VH, the linker GGGGSGGGGSGGGGS, VL. Only the CDRs of the light chain vary.
VH: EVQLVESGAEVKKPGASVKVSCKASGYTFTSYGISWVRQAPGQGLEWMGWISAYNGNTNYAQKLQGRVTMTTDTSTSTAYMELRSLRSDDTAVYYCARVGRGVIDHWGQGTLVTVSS
VL: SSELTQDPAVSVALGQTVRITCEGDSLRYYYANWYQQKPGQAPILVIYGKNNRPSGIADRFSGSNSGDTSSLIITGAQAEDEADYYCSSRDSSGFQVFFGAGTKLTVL

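Phage display of a naive human antibody library on the peptide gave the parent. AAYL52 was designed without a model: most single CDR substitutions and a random sample of double and triple ones. Affinity was read by AlphaSeq, a pooled yeast mating assay with surface-displayed partners. The frequency of each diploid, read from paired DNA barcodes, reflects how well the two displayed proteins bind. Read counts were normalised to the haploid input and turned into Kd by a linear fit to BCL2-family pairs of known affinity, for each replicate. Each pool was mated in three replicate cultures.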

Variants are written as CDR1, CDR2 and CDR3 of the light chain (limits as in the source). Parent: EGDSLRYYYAN, GKNNRPS, SSRDSSGFQVF. Scale: log10 of Kd in nM, estimated from mating counts; low values are strong binders. Averages over replicates are reported, and they cover detected replicates only. "no signal" marks a missing value. The strain was present, yet no cells mated with the target were sequenced in any replicate, which points to weak or no binding. Empty control strains, which show no peptide, gave a signal in 28% of pairings with library AAYL52; the median was 3.91 and 95% of these signals were weaker than 2.90. No background was subtracted. The control count says in how many pairings with the empty strains this scFv gave a signal.

| # | CDR-L1 | CDR-L2 | CDR-L3 | mean log10 Kd (nM) | seen in | empty controls |
|---|---|---|---|---|---|---|
| 1 | IGDSLRYYYAN | GKNNRWG | SSRDSSGFQVF | 2.81 | 3 of 3 | 0 of 9 |
| 2 | EFDSLRYYYAN | GKNNRTS | SSRDSSLFQVF | 3.40 | 3 of 3 | 7 of 9 |
| 3 | EGNSLRYYYAN | HKNNRPS | SSRDSSGFEVF | 3.36 | 3 of 3 | 4 of 9 |
| 4 | EGDSLRYYYAN | GKNQVPS | SSRISSGFQVF | 2.50 | 3 of 3 | 4 of 9 |
| 5 | EGWSLRYYYAN | GKNNRPS | SSRDSCGFAVF | 5.05 | 1 of 3 | 2 of 9 |
| 6 | EGDSLRYYYAN | GENNRPW | SSRDNSGFQVF | 2.22 | 3 of 3 | 1 of 9 |
| 7 | EGDLLRYYYAN | GKNNIPS | SSRDSSEFQVF | 5.43 | 1 of 3 | 2 of 9 |
| 8 | EGDSLRYYYAN | HKNNRPS | STRDDSGFQVF | 3.05 | 2 of 3 | 1 of 9 |
| 9 | EGDSLRYYYAN | GKNNRPT | CSRDRSGFQVF | 2.31 | 3 of 3 | 1 of 9 |
| 10 | EGDSLPYYYAN | GKNNRES | SSRKSSGFQVF | 4.42 | 1 of 3 | 1 of 9 |
| 11 | EGDSLRYYYAN | GKYNRPS | SSRDLSGFQWF | 4.17 | 2 of 3 | 4 of 9 |
| 12 | EGGSLRWYYAN | GKNNRPS | SSRDSSGFQVF | 1.54 | 3 of 3 | 8 of 9 |
| 13 | MGDSLHYYYAN | GKNNRPS | SSRDDSGFQVF | 3.03 | 3 of 3 | 3 of 9 |
| 14 | EIWSLRYYYAN | GKNNRPS | SSRDSFGFQVF | 4.27 | 2 of 3 | 3 of 9 |
| 15 | EGDSLRYYYAN | GKNNRPS | SWRDSSKFQVG | 1.92 | 3 of 3 | 1 of 9 |
| 16 | EGDSRRYYYAN | GDNNYPS | SSRDSSGFQVF | 3.29 | 2 of 3 | 2 of 9 |
| 17 | EFLSLRYYYAN | GKNNRPS | SSRDSSGFQVF | 4.28 | 2 of 3 | 2 of 9 |
| 18 | EGDSLRYCYAQ | GKNNDPS | SSRDSSGFQVF | 3.16 | 2 of 3 | 2 of 9 |
| 19 | EGDALRYYYFN | GKNNRPS | SSRDSSGFQVF | 3.87 | 2 of 3 | 4 of 9 |
| 20 | EGDSLVYYYHN | GKNNRPS | SSRDSRGFQVF | 3.50 | 1 of 3 | 1 of 9 |
| 21 | DGDSLRSYYAN | GKNNRPS | SSRDSSGFQVG | 2.11 | 3 of 3 | 2 of 9 |
| 22 | EGDSLRYEYYN | GKNNRPS | SSRRSSGFQVF | no signal | 0 of 3 | 0 of 9 |
| 23 | PGDSLRYYYAN | KKNNRDS | SSRDSSGFQVF | 4.71 | 3 of 3 | 4 of 9 |
| 24 | EGDLLRYYYAN | WHNNRPS | SSRDSSGFQVF | no signal | 0 of 3 | 1 of 9 |
| 25 | ERDSLRYYYAN | GKLNRPS | SSRDISGFQVF | 2.77 | 1 of 3 | 2 of 9 |
| 26 | ENDSLRYYYAN | GKNNRPS | SSRDSSGFDVW | 3.71 | 2 of 3 | 4 of 9 |
| 27 | EGDSLREYYAN | GPNNRPS | SSRDYSGFQVF | 2.23 | 3 of 3 | 1 of 9 |
| 28 | EGDSLRYQYAN | GKNIRPS | SSRDSSGFGVF | 1.72 | 3 of 3 | 2 of 9 |
| 29 | EGDSLHYYYAQ | GKNNRPS | SSRDSSGFTVF | 4.67 | 1 of 3 | 2 of 9 |
| 30 | FGDSLRYYYNN | GKNNRPS | SSRDSSGFQVF | 3.11 | 3 of 3 | 4 of 9 |
| 31 | EGDSKRYYYAN | YKNNRPS | SSRDSCGFQVF | 5.34 | 1 of 3 | 1 of 9 |
| 32 | EGDSLRYCYAN | GKNNRPS | SSRESSGFQLF | 3.28 | 3 of 3 | 4 of 9 |
| 33 | IGDSLRYYYAN | GKNNRHC | SSRDSSGFQVF | 3.40 | 3 of 3 | 3 of 9 |
| 34 | EGDSHRYYQAN | GENNRPS | SSRDSSGFQVF | 2.37 | 3 of 3 | 3 of 9 |
| 35 | EGDSLRYYYAN | GKNNRPS | SVRDSDGFAVF | 3.19 | 3 of 3 | 3 of 9 |
| 36 | EADSLRYRYAN | GKNNRPS | SSRDNSGFQVF | 1.70 | 3 of 3 | 3 of 9 |
| 37 | EADSLAYYYAN | GKNNWPS | SSRDSSGFQVF | 3.55 | 2 of 3 | 5 of 9 |
| 38 | EGDSLRYYYAN | EKNNRPS | SSRDSSFVQVF | 3.25 | 3 of 3 | 1 of 9 |
| 39 | FGDSLTMYYAN | GKNNRPS | SSRDSSGFQVF | 5.56 | 1 of 3 | 3 of 9 |
| 40 | EGDSLRYYYAW | GKNNRPE | SSRDSSGFQVF | 4.08 | 1 of 3 | 2 of 9 |
| 41 | EGDSLRYYYAN | GCNNTPS | SSRDMSGFQVF | 4.38 | 1 of 3 | 6 of 9 |
| 42 | EGDSLRYYYAN | GKDYRPS | SSRDSVGFQVF | 3.56 | 3 of 3 | 3 of 9 |
| 43 | EGDSLRYYYAG | GHNNRPS | SSRDSSGFQVF | 3.08 | 3 of 3 | 4 of 9 |
| 44 | EGDSLRYYYVN | GKNNRPS | NSRDASGFQVF | 2.88 | 3 of 3 | 2 of 9 |
| 45 | EGDSLRYYYAN | GKNNRPS | SSRDTWPFQVF | 2.93 | 3 of 3 | 3 of 9 |
| 46 | EGDSLRDYFAN | GKNNRPS | SSRDSSGFFVF | 2.83 | 3 of 3 | 7 of 9 |
| 47 | EGDSIRYYYAN | GKNNRPS | ISRDSSGFQVG | 4.35 | 1 of 3 | 1 of 9 |
| 48 | EMDSLRYYYAN | GPNNRPS | SSRDSSGFQVE | 2.85 | 3 of 3 | 3 of 9 |
| 49 | EGDSLRYYYAN | GKNNRPS | SSRDISGPGVF | 3.99 | 2 of 3 | 4 of 9 |
| 50 | HGDSLRCYYAN | GKNNRPS | SSRTSSGFQVF | 3.12 | 3 of 3 | 6 of 9 |
| 51 | EGDSLRYHYAN | GKNNRPS | SGRDSSGFQVQ | 2.19 | 3 of 3 | 0 of 9 |
| 52 | EISSLRYYYAN | GKNNVPS | SSRDSSGFQVF | 4.48 | 2 of 3 | 3 of 9 |
| 53 | EGLSLRYYLAN | GKNNRPS | SSRDSSGFSVF | 3.42 | 3 of 3 | 1 of 9 |
| 54 | EGDSLREYYAN | GKNNRPS | TSRDSVGFQVF | 2.77 | 2 of 3 | 3 of 9 |
| 55 | FGDSLRYYYAN | GKNNRPS | ISRDSSGFQCF | no signal | 0 of 3 | 0 of 9 |
| 56 | EGDSLRYYGAG | GKNNRPS | SLRDSSGFQVF | no signal | 0 of 3 | 1 of 9 |
| 57 | EGDSLRYSYAN | GKNNRPS | SSRDNSGFQFF | 1.26 | 3 of 3 | 5 of 9 |
| 58 | EGDSLYYYYAN | GKNNRLS | SSRDSPGFQVF | 4.92 | 2 of 3 | 5 of 9 |
| 59 | ELDALRYYYCN | GKNNRPS | SSRDSSGFQVF | 3.24 | 3 of 3 | 3 of 9 |
| 60 | EGDSLRYAYAN | GKNNAPS | SSRDSSSFQVF | 2.38 | 3 of 3 | 2 of 9 |
| 61 | EGDELRYYYAN | GKNNRES | SSRLSSGFQVF | no signal | 0 of 3 | 0 of 9 |
| 62 | EGDSLRYVYAN | GKNNRPS | RSRDSSGFQGF | 3.18 | 2 of 3 | 1 of 9 |
| 63 | EGDSLRYYWAN | GKNNRPS | STRDSSGFQDF | 3.86 | 2 of 3 | 1 of 9 |
| 64 | EGDSLRYYYAN | GKNSRMS | SSRHSSGFQVF | 4.03 | 2 of 3 | 1 of 9 |
| 65 | EGDSLRYYYTN | GKNNRPS | SARDSSGFQMF | 1.78 | 3 of 3 | 2 of 9 |
| 66 | EGVSLRYYYKN | GKNNRPS | SSRDSSCFQVF | 4.72 | 1 of 3 | 0 of 9 |
| 67 | EGPSLRYEFAN | GKNNRPS | SSRDSSGFQVF | 1.20 | 3 of 3 | 3 of 9 |
| 68 | QGDSLRYYYAK | GKNNRPS | SYRDSSGFQVF | 3.18 | 2 of 3 | 6 of 9 |
| 69 | EGDSLRYYYAN | GKNNRPL | RSRDSSGFQVG | 3.68 | 2 of 3 | 0 of 9 |
| 70 | EGDSLRYYYAN | GANNRPS | SSPDSSCFQVF | no signal | 0 of 3 | 0 of 9 |
| 71 | EWDSCRYYYAN | GKNNRPS | SSRDSSGFQQF | no signal | 0 of 3 | 1 of 9 |
| 72 | EGDWLRYYYAG | GKNNRPS | SVRDSSGFQVF | no signal | 0 of 3 | 1 of 9 |
| 73 | EGDSLRDYYAN | GKNNRPS | SSRDSSGSNVF | 1.41 | 3 of 3 | 4 of 9 |
| 74 | EGDSLVYYYAN | GKNNRPS | KSRDSSGLQVF | 5.66 | 1 of 3 | 4 of 9 |
| 75 | VGDSLTYYYAN | GKNNRPS | SWRDSSGFQVF | 3.62 | 3 of 3 | 2 of 9 |
| 76 | EGDSSRYWYAN | GKNNRPS | SKRDSSGFQVF | 3.98 | 3 of 3 | 2 of 9 |
| 77 | GGDSLRLYYAN | GKNNRPS | SSRDSSMFQVF | 3.79 | 2 of 3 | 2 of 9 |
| 78 | EGDSLRYYYAN | HKNNRPS | SPRVSSGFQVF | no signal | 0 of 3 | 2 of 9 |
| 79 | HGDSLRYYYAN | GKNNRPS | LSRVSSGFQVF | 4.51 | 2 of 3 | 1 of 9 |
| 80 | EGDSLRYYYAN | GKNNRPP | FSRDSSLFQVF | 3.13 | 3 of 3 | 5 of 9 |

12 of these entries, quoted again:

CDR-L1,CDR-L2,CDR-L3,mean log10 Kd (nM),seen in,empty controls
EGDSLRYYYAN,GKNNRPL,RSRDSSGFQVG,3.68,2 of 3,0 of 9
EGDSLRDYFAN,GKNNRPS,SSRDSSGFFVF,2.83,3 of 3,7 of 9
EGDSLRYYYAN,GKNNRPS,SWRDSSKFQVG,1.92,3 of 3,1 of 9
EGDSLRYEYYN,GKNNRPS,SSRRSSGFQVF,no signal,0 of 3,0 of 9
EGDSLRYYYAN,GCNNTPS,SSRDMSGFQVF,4.38,1 of 3,6 of 9
EGDSLRYYYAN,GKNNRPS,SVRDSDGFAVF,3.19,3 of 3,3 of 9
EGDSLRYCYAN,GKNNRPS,SSRESSGFQLF,3.28,3 of 3,4 of 9
EGDSLRYYYAW,GKNNRPE,SSRDSSGFQVF,4.08,1 of 3,2 of 9
FGDSLRYYYAN,GKNNRPS,ISRDSSGFQCF,no signal,0 of 3,0 of 9
EGDSRRYYYAN,GDNNYPS,SSRDSSGFQVF,3.29,2 of 3,2 of 9
ELDALRYYYCN,GKNNRPS,SSRDSSGFQVF,3.24,3 of 3,3 of 9
EADSLAYYYAN,GKNNWPS,SSRDSSGFQVF,3.55,2 of 3,5 of 9

For reference, the parent read 2.31 as the reference entry and 2.25 as a member of this library.